The chains behind the UniProt entries cited, without tags or fusion partners.
UniProt P31652, whole entry: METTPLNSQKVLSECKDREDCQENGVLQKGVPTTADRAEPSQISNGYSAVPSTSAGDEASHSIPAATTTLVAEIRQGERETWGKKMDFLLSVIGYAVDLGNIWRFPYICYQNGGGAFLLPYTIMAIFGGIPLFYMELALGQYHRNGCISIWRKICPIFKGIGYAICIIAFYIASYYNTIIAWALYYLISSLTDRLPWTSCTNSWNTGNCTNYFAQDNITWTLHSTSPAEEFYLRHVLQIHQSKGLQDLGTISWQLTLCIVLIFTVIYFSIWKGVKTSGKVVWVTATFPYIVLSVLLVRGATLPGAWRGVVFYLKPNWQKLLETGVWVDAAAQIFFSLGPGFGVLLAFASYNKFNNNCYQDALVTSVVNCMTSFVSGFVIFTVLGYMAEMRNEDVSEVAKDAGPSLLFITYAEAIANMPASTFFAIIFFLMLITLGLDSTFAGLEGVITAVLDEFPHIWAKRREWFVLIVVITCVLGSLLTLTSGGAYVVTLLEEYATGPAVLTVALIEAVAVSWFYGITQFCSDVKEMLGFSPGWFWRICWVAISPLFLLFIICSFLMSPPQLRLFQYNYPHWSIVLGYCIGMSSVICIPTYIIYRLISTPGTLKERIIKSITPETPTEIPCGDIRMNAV

In patent publication US6387389B1 (priority 1996, dated 2002):

Target: serotonin transporter (ST) (Rattus norvegicus, UniProt P31652)
Conditions: read-out: SERT labeled [125I] RTI 55 binding, 18 to 24 hrs at 4° C.

Fc1ccc(C(OCCN2CCN(CCCc3ccccc3)CC2)c2ccc(F)cc2)cc1 [GBR 12909, 1-[2-[bis(4-fluorophenyl)methoxy]ethyl]-4-[3-phenylpropyl]piperazine]
IC50: 127 nM
